Experimental data as given in US20260109713A1, “SIRTUIN MODULATING COMPOUNDS, INCLUDING SIRTUIN ACTIVATING COMPOUNDS, AND APPLICATIONS THEREOF” (CODAGEN BIOSCIENCES, INC., priority 2022, published 2026).

Target: T1, hSIRT3 (Homo sapiens, UniProt Q9NTG7)
T1 construct: His-tag; purchased Enzo Life Sciences (Farmingdale, NY)
T1 sequence (Q9NTG7 102-399): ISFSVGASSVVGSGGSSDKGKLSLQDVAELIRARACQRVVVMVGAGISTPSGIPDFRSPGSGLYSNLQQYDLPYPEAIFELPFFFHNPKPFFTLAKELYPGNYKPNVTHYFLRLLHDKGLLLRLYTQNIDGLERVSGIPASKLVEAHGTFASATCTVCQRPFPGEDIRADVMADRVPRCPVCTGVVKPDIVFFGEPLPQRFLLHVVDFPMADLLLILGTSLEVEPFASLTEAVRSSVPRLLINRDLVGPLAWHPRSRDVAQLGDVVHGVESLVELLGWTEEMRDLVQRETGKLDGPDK
Assay: Fluorescence-based SIRT3 deacetylation assay using FdL2 peptide, steady state (Conditions I)
Type: biochemical
Conditions: [cpd]=50 μM; [NAD+]=1 mM, [FdL2 peptide]=50 μM, 30 min
Procedure: FIG. 4. Effect of top ranked hit compounds on Sirt3 deacetylation activity.
The 6 top ranked compounds from DEL screening were tested modulation effect of SIRT3 using fluorescence-based assay (FIG. 4).
The enzymatic reactions were carried out similar to as described above. The reaction was terminated by adding the 1× developer 2 mM NAM solution and measured the fluorescence on TECAN microplate reader. The raw data were fitted to the defined model equations using GraphPad Prism (GraphPad Software, Inc, CA).

C=CCc1ccc(O)c(-c2ccc(O)c(CC=C)c2)c1 [HKL, Honokiol, reference compound]
SIRT3 deacetylation activity, % control, 50 μM or Maxi: 68.5%
